Earlier results as cited in EP1928431B1, “CONTROLLED RELEASE PHARMACEUTICAL COMPOSITION CONTAINING CARVEDILOL” (Egis Gyógyszergyár Nyilvánosan Múködö Részvénytársaság, priority 2005, dated 2007).

Conditions: ratio to carvedilol base; WO 03/092622

## carvedilol monocitrate
  more soluble in water than carvedilol base: 100 times
